Bioassay records (PubChem)
Most compounds without a hit are left out; they make up all but 3.7% or so of the library.
p53 reactivator – mutant p53 re-activation in reporter cells; H1299 p53-A138V BP100-luciferase reporter, luminescence, 24 h; 320,000 compounds, 0.063% hits; Potency, µM (highest dose often 92.2 µM), most hits filed as activators; AID 504706; note: nearly all actives have a fitted effect of over 45% in size
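H1299 (p53-null), stable ts p53-A138V + BP100-Luc; 1000 cells/well, Opti-MEM/10% FBS; cpd 4 pt, 1:5; 24 h, 37 deg C, 5% CO2; detection reagent 10 min RT; luminescence.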
Nrf2 ARE act – Nrf2 pathway activation; AREc32 ARE-luciferase reporter (MCF7-derived line), luminescence, 24 h; Potency, µM (highest dose often 46.1 µM), hits mostly activators; 410,000 compounds, 0.31% hits; note: nearly all actives have a fitted effect of over 65% in size
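For detection, Steady-Glo was added and plates sat 30 min at RT; before that, AREc32_Fluc cells grown overnight in OPTI-MEM/5% FBS had been treated with 23 nL compound for 24 hr at 37 deg C.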
ClpP mod – qHTS Assay for Activators of ClpP; ATP-dependent Clp protease proteolytic subunit (Bacillus subtilis (strain 168)), P80244; purified B. subtilis ClpP, FRET peptide cleavage, 20 min; Potency, µM (top dose mostly 57.5 µM); 340,000 compounds, 1.9% hits; active = well fitted falling curve with a large enough effect; inconclusive = small, poorly fitted or top-dose-only effect; inactive = no such curve, though single readings can be large or run the other way; note: the source files actives as falling curves though it sought activators and does not explain the sign; nearly all actives have a fitted effect of over 65% in size
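ClpP 10 microg/mL final, pH 8 Tris/KCl buffer with BSA, glycerol, Tween-20; compound pinned in; FRET-FV substrate; RT 20 min; Ex320/Em430; ΔFRET vs ADEP 5.8 microM, DMSO, no enzyme.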
miR-21 reporter – miR-21 reporter, rising signal; HeLa miR-21 FLuc reporter, luciferase, 48 h; Potency, µM (titrated, usually from 38.3 µM); AID 2288; 340,000 tested, under 10 active; active = well fitted rising curve with a large enough effect; inconclusive = small, poorly fitted or top-dose-only effect; inactive = no such curve, though single readings can be large or run the other way;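 further: miR-21 action dims this reporter so a rising signal means less miR-21 action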
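Luminescence from a firefly luciferase reporter carrying a miR-21 binding site downstream, stably expressed under a CMV promoter in HeLa cells that make miR-21 endogenously, reports miRNA modulation after 48 h compound exposure up to approximately 40uM final.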
Nrf2 block – inhibitors of Nrf2 signaling. 360,000 compounds, 2.1% hits. A549 ARE-Fluc reporter, luciferase luminescence, 18-24 h. Potency, µM (top dose mostly 46 µM), usual class: inhibitors. AID 504444; note: nearly all actives have a fitted effect of over 60% in size
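Reporter: ARE-Fluc in A549. Exposure: 18-24 h, 37 °C, 5% CO2, 5% FBS OPTI-MEM. Readouts: fluorescent cytotoxicity (CellTiter-Fluor), then luminescent Nrf2 signal after BugLite.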
A549 viability – counter-screen for Nrf2 inhibitors: cytotoxicity in A549 cells; A549 ARE-Fluc cells, CellTiter-Fluor viability, 18-24 h; 390,000 compounds, 0.16% hits; Potency, µM (highest dose often 46 µM), usual class: inhibitors; AID 504648
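A549 ARE-Fluc cells in 5% FBS OPTI-MEM, 5000 cells/well, rested 2 h then exposed to compounds in concentration-response for 18-24 h at 37 °C. Viability by CellTiter-Fluor fluorescence (Ex 405/Em 525) after 30 min; luciferase luminescence (BugLite, 15 min, RT) read afterwards.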
Of the large screens only hits and unclear results are named; the others gave an inactive call. Unless noted, calls come from the whole dose curve; as a rule, active = well fitted curve in the direction sought with a large enough effect; inconclusive = small, poorly fitted or top-dose-only effect, or another doubt; inactive = no such curve, though single readings can be large; an effect the other way counts as inactive or inconclusive.

Chains of the proteins cited; added tags and fusions are not shown.
ATP-dependent Clp protease proteolytic subunit (Bacillus subtilis (strain 168)), P80244, UniProt P80244, whole entry, looked up: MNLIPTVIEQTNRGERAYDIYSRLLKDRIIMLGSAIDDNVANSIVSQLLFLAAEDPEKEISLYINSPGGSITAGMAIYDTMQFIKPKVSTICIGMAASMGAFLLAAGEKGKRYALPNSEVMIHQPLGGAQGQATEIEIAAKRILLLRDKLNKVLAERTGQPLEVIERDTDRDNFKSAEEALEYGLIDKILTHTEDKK

Nc1c(Cl)cc(Cl)cc1C(=O)OCC(=O)N1CCOCC1	none
CC1CCN(C(=O)COC(=O)c2cc(Cl)cc(Cl)c2N)CC1	ClpP mod 28µM
CC(C)N(C(=O)COC(=O)c1cc(Cl)cc(Cl)c1N)C(C)C	ClpP mod 16µM
COc1cccc(C2c3c(ncn(-c4ccccn4)c3=N)Oc3ccc4ccccc4c32)c1 (stereo not given)	Nrf2 block inconclusive (no result: p53 reactivator, Nrf2 ARE act, ClpP mod, miR-21 reporter)
Cc1ccc(N/C(N)=N/c2nc(C)cc(N3CCCCC3)n2)c(C)c1	miR-21 reporter inconclusive, Nrf2 block 13µM, A549 viability inconclusive (no result: ClpP mod)
Cc1nc(-c2ccc(C)c(N3CCN(C(=O)Nc4ccccc4C(F)(F)F)CC3)c2)no1	none (no result: p53 reactivator, Nrf2 block)
C[N+]1(CC(=O)c2cccc([N+](=O)[O-])c2)CCOCC1	none (no result: p53 reactivator, Nrf2 ARE act, miR-21 reporter, Nrf2 block, A549 viability)
CCOc1ccc2nc(N/C(N)=N/C(=S)Nc3ccc(C)c(C)c3)nc(C)c2c1	ClpP mod 25µM
Cc1ccc(C)c(N(C)C(=O)c2cn(C)c(=O)c3ccccc23)c1	none (no result: p53 reactivator)
c1ccc(-c2csc3ncnc(NCCN4CCOCC4)c23)cc1	Nrf2 block 15µM
Cc1ccc(-c2csc3ncnc(NCCN4CCOCC4)c23)cc1	Nrf2 block inconclusive
COc1ccc(OCC(=O)NCC2(N3CCN(C)CC3)CCCCC2)cc1	none (no result: p53 reactivator)
CC(=O)Nc1ccc(Nc2cc(C)nc3c(-c4ccc(Cl)cc4)c(C)nn23)cc1	ClpP mod 28µM, Nrf2 block inconclusive
CC(=O)Nc1ccc(Nc2cc(C)nc3c(-c4ccc(Cl)cc4)cnn23)cc1	p53 reactivator inconclusive, ClpP mod inconclusive, Nrf2 block inconclusive
CC(CNC(=O)c1sc2ncccc2c1-n1cccc1)c1ccccc1 (stereo not given)	none (no result: p53 reactivator, Nrf2 block)
CCOC(=O)[C@]12CCCC=C1N(Cc1ccco1)C(=O)[C@H](CC(=O)N1CCC(c3ccccc3)CC1)C2	none (no result: p53 reactivator, miR-21 reporter, Nrf2 block, A549 viability)
COC(=O)c1ccccc1NC1OC(=O)c2ccccc21 (stereo not given)	ClpP mod 32µM
Cc1c(C(=O)NCc2ccccc2C(F)(F)F)sc(=O)n1Cc1ccc2c(c1)OCO2	none (no result: p53 reactivator, miR-21 reporter, Nrf2 block, A549 viability)
O=C(Nc1ccc(N2CCN(c3ncccc3C(F)(F)F)CC2)nc1)c1cccs1	miR-21 reporter inconclusive, Nrf2 block 21µM, A549 viability inconclusive
COc1ccccc1C1CC(c2cccs2)=Nc2ccccc2S1 (stereo not given)	p53 reactivator inconclusive, Nrf2 ARE act 18µM
COc1ccccc1NC(=O)CCn1nc(-c2ccccc2)c2ccccc2c1=O	Nrf2 block 23µM, A549 viability inconclusive (no result: p53 reactivator)
CC(=O)N1CCc2cc(S(=O)(=O)NC(Cc3ccccc3)C(=O)NCc3ccccc3)ccc21 (stereo not given)	none (no result: p53 reactivator)
O=C(NC12CC3CC(CC(C3)C1)C2)c1ccc(-c2ccc(Br)cc2)o1	p53 reactivator inconclusive, ClpP mod 32µM, Nrf2 block inconclusive
O=C(NC1CCS(=O)(=O)C1)c1ccc(-c2ccc(Br)cc2)o1 (stereo not given)	ClpP mod 16µM
Cc1cc(=O)n2[nH]c(NC(=O)c3cccc(Cl)c3)nc2n1	none (no result: p53 reactivator)
CCN(CC)S(=O)(=O)c1cc(NC(=O)C2CC(=O)N(Cc3ccccc3)C2)ccc1Cl (stereo not given)	Nrf2 block 18µM (no result: miR-21 reporter)
CCN(CC)S(=O)(=O)c1cc(NC(=O)C2CCN(c3ncnc4sc(C)c(C)c34)CC2)ccc1Cl	ClpP mod inconclusive, Nrf2 block 12µM, A549 viability inconclusive (no result: miR-21 reporter)
Cc1ccc(NC(=O)C2CCN(c3ncnc4sc(C)c(C)c34)CC2)cc1S(=O)(=O)N(C)C	Nrf2 block 23µM (no result: ClpP mod, miR-21 reporter)
Cc1ccc(NC(=O)C2CC(=O)N(Cc3ccccc3)C2)cc1S(=O)(=O)N1CCCCCC1 (stereo not given)	Nrf2 block inconclusive
Cc1sc2ncnc(N3CCC(C(=O)Nc4ccc(S(N)(=O)=O)cc4)CC3)c2c1C	Nrf2 block inconclusive (no result: miR-21 reporter)
O=C(N/N=C/c1cccc(Oc2ccc([N+](=O)[O-])cc2[N+](=O)[O-])c1)c1cncc(Br)c1	Nrf2 ARE act inconclusive, Nrf2 block 13µM, A549 viability inconclusive
Cc1ccccc1OCC(=O)N/N=C/c1cccc(Oc2ccc([N+](=O)[O-])cc2[N+](=O)[O-])c1	Nrf2 ARE act inconclusive, Nrf2 block inconclusive
COC(=O)c1ccc(OCC2c3cc(OC)c(OC)cc3CCN2C(=O)c2ccc(F)cc2)cc1 (stereo not given)	none (no result: p53 reactivator, Nrf2 block)
O=C(N/N=C/c1ccc([N+](=O)[O-])o1)c1cc(-c2cccc(Br)c2)nc2ccccc12	Nrf2 ARE act inconclusive, Nrf2 block 13µM, A549 viability inconclusive
CCCc1ccc(-c2cc(C(=O)N/N=C/c3ccc([N+](=O)[O-])o3)c3ccccc3n2)cc1	p53 reactivator inconclusive, Nrf2 block 10µM
O=C(N/N=C/c1ccco1)c1cc(-c2ccccc2)nc2ccccc12	none
CN1CCCC1CCNc1ncnc2ccc(-c3ccc4c(c3)OCO4)cc12 (stereo not given)	none (no result: p53 reactivator, Nrf2 ARE act, ClpP mod, miR-21 reporter)
CCCn1cnc2cc(NCc3cccc(OC)c3)ccc21	ClpP mod 28µM
COc1ccc(CNc2ccc3c(c2)ncn3-c2ccccc2OC)cc1	Nrf2 block 18µM
CCOc1ccc(CNc2ccc3c(c2)ncn3C)cc1	p53 reactivator inconclusive, ClpP mod 32µM
CCCn1cnc2cc(NCc3ccc(OC)cc3OC)ccc21	ClpP mod inconclusive (no result: p53 reactivator)
CCn1cnc2cc(NCc3cccc(OC)c3O)ccc21	ClpP mod 32µM
CCOc1ccc(CNc2ccc3c(c2)ncn3C(C)(C)C)cc1	Nrf2 block inconclusive
COc1ccccc1CNC(=O)COCc1cc(-c2ccc3c(c2)OCO3)on1	none (no result: p53 reactivator)
CC(C)(C)C1CCc2c(sc3nc(-c4cc5cc(Br)ccc5oc4=O)[nH]c(=O)c23)C1 (stereo not given)	Nrf2 block inconclusive (no result: p53 reactivator)
CC(=O)c1cccc(NC(=O)[C@H](Cc2ccccc2)N2Cc3ccccc3C2=O)c1	none (no result: p53 reactivator)
CCn1c(C(=O)NCCc2ccc(S(N)(=O)=O)cc2)cc2sc(Cl)cc21	Nrf2 block inconclusive (no result: p53 reactivator)
CC1CC(C)CN(c2nc(NCc3ccco3)nc(N)c2[N+](=O)[O-])C1 (stereo not given)	Nrf2 block 23µM
CC1CCCN(c2nc(NCc3ccco3)nc(N)c2[N+](=O)[O-])C1 (stereo not given)	Nrf2 block 18µM
Nc1nc(NCc2ccco2)nc(N2CCOCC2)c1[N+](=O)[O-]	Nrf2 ARE act inconclusive, Nrf2 block inconclusive
Cc1ccc(Oc2nnc(-c3cccs3)c3ccccc23)cc1	none
